Apparent affinities of Ab-14 variants for a coronavirus HR2 peptide

Binding partner: SARS-CoV-2 spike HR2 peptide, sequence PDVDLGDISGINAS.

Ab-14 is the parent antibody, in scFv form: VH, then the linker GGGGSGGGGSGGGGS, then VL. The heavy chain is unchanged in all variants.
VH: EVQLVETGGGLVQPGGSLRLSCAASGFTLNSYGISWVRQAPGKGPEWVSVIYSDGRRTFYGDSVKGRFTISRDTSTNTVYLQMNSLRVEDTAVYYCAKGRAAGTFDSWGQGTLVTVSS
VL: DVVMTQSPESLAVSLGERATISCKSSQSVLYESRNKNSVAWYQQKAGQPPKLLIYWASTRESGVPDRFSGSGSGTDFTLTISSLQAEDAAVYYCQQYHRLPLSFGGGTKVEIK

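The starting antibody came from a phage panning campaign against this peptide. AAYL50 was designed without a model: most single CDR substitutions and a random sample of double and triple ones. The assay is AlphaSeq: two haploid yeast populations carry antibody and antigen on their surface. The frequency of each diploid, read from paired DNA barcodes, reflects how well the two displayed proteins bind. Scores were corrected for input abundance and mapped to Kd with protein pairs of known affinity run in the same pool. The assay was run in three technical replicates.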

Substitutions are numbered in sequence along the VL above, starting at 1 (not Kabat).
This list gathers variants with a substitution at E61 (VL, numbered from residue 1).
The Kd shown is the geometric mean over detected replicates; a lower Kd is a better binder.
An entry "not detected" has no value in the source: the pair was not observed among the diploids in any replicate. This suggests poor binding but is not conclusive.
As a blank, each scFv also met three strains without target: over library AAYL50, 18% of these pairings were detected, typically at 15 µM and seldom below 970 nM. For each scFv, signals with the empty controls are counted beside the result.
In this assay the parent's reference entry averaged 4.4 nM; its copy inside this library read 48 nM.

| changes | apparent Kd | detected | control signals |
|---|---|---|---|
| Y31A+E61T+Q95P | not detected | 0 of 3 | 2 of 9 |
| Y31N+W56D+E61F | 2.0 nM | 3 of 3 | 8 of 9 |
| S38I+E61R+P101G | 8.3 µM | 1 of 3 | 2 of 9 |
| A40F+T59Q+E61K | not detected | 0 of 3 | 0 of 9 |
| V29I+V39F+E61S | 1.9 µM | 2 of 3 | 3 of 9 |
| Y31K+R60I+E61K | 130 µM | 1 of 3 | 4 of 9 |
| S33D+V39F+E61V | 35 nM | 3 of 3 | 2 of 9 |
| Q27E+S38H+E61F | 67 nM | 3 of 3 | 2 of 9 |
| K24Q+L30R+E61I | 67 nM | 3 of 3 | 1 of 9 |
| E61A | 9.3 nM | 3 of 3 | 5 of 9 |
| S33P+E61K+P101R | not detected | 0 of 3 | 0 of 9 |
| S33D+E61F+L102P | 3.2 nM | 3 of 3 | 2 of 9 |
| R60S+E61I+H98W | 2.0 µM | 3 of 3 | 4 of 9 |
| S25K+E61D | 66 nM | 1 of 3 | 0 of 9 |
| V39A+E61T+S103D | not detected | 0 of 3 | 0 of 9 |
| T59E+E61K+S62Y | 350 nM | 3 of 3 | 0 of 9 |
| N35K+E61M | 29 nM | 3 of 3 | 0 of 9 |
| E61V+Q96T+L102D | 49 nM | 3 of 3 | 3 of 9 |
| K36T+N37M+E61F | 27 nM | 3 of 3 | 1 of 9 |
| N37P+E61A+S103M | 43 nM | 3 of 3 | 3 of 9 |
| K24I+V39I+E61A | 12 nM | 3 of 3 | 0 of 9 |
| N37S+R60S+E61F | 14 µM | 1 of 3 | 1 of 9 |
| Q27A+L30N+E61D | 11 nM | 3 of 3 | 1 of 9 |
| R34A+S38Q+E61Q | 33 nM | 3 of 3 | 1 of 9 |
| E61H+S62W+Y97E | 48 µM | 1 of 3 | 3 of 9 |
| S28Q+E61D+Q95C | 140 nM | 3 of 3 | 2 of 9 |
| A40D+E61R+L100K | not detected | 0 of 3 | 1 of 9 |
| Q27M+E61I+H98K | 100 nM | 2 of 3 | 0 of 9 |
| S25C+E61N+H98D | not detected | 0 of 3 | 0 of 9 |
| E61R | not detected | 0 of 3 | 0 of 9 |

The last 4 entries again:

| changes | apparent Kd | detected | control signals |
|---|---|---|---|
| A40D+E61R+L100K | not detected | 0 of 3 | 1 of 9 |
| Q27M+E61I+H98K | 100 nM | 2 of 3 | 0 of 9 |
| S25C+E61N+H98D | not detected | 0 of 3 | 0 of 9 |
| E61R | not detected | 0 of 3 | 0 of 9 |

Source: Engelhart et al. 2022 (doi:10.1038/s41597-022-01779-4), MIT Lincoln Laboratory and A-Alpha Bio; data file from the FLAb repository.